Measurements: ChEMBL document CHEMBL4316596, “Antimicrobial Peptides with High Proteolytic Resistance for Combating Gram-Negative Bacteria” (J Med Chem, 2019)

Assay: Cytotoxicity against IPECJ2 cells assessed as cell death after 18 to 24 hrs by MTT assay
Format: cell-based
Details: Sus scrofa, IPEC-J2

`CC[C@H](C)[C@H](NC(=O)CN)C(=O)NCC(=O)N[C@@H](C)C(=O)N[C@H](C(=O)N[C@@H](CC(C)C)C(=O)N[C@@H](CCCCN)C(=O)N[C@H](C(=O)N[C@@H](CC(C)C)C(=O)N[C@H](C(=O)N[C@H](C(=O)NCC(=O)N[C@@H](CC(C)C)C(=O)N1CCC[C@H]1C(=O)N[C@@H](C)C(=O)N[C@@H](CC(C)C)C(=O)N[C@H](C(=O)N[C@@H](CO)C(=O)N[C@@H](Cc1c[nH]c2ccccc12)C(=O)N[C@H](C(=O)N[C@@H](CCCCN)C(=O)N[C@@H](CCCNC(=N)N)C(=O)N[C@@H](CCCCN)C(=O)N[C@@H](CCCNC(=N)N)C(=O)N[C@@H](CCC(N)=O)C(=O)N[C@@H](CCC(N)=O)C(N)=O)[C@@H](C)CC)[C@@H](C)CC)[C@@H](C)O)[C@@H](C)O)C(C)C)C(C)C` [MELITTIN] gave a pIC50 of 5.54.

pIC50: −log10 of the molar value.
